Drawing on ChEMBL document CHEMBL6177999, “Discovery of 3-(Fluoro-imidazolyl)pyridazine Derivatives as Potent STING Agonists with Antitumor Activity” (J Med Chem, 2025), this text covers Activity for two compounds.

Activity calls are given as the source filed them. No cut-off for these calls is given here.

One data set deals with B16-F10. In words: Antitumor activity against mouse B16-F10 cells allografted in female C57BL/6 mouse assessed as prolongation of animal survival at 30 mg/kg, iv qd. It is filed as functional, organism-based.
Data set [1] in a line: Acute toxicity in female C57BL/6 mouse assessed as change in body weight at 10 mg/kg, iv qd treated for 7 days. It is filed as organism-based. Conditions: in vivo, 168 h, time 7 day.
Data set [2] can be described thus: Acute toxicity in female C57BL/6 mouse assessed as change in spleen weight at 10 mg/kg, iv qd treated for 7 days. Conditions: in vivo, 168 h, time 7 day. It is filed as organism-based.
Data set [3] in a line: Acute toxicity in female C57BL/6 mouse assessed as change in kidney weight at 10 mg/kg, iv qd treated for 7 days. Particulars: in vivo, 168 h, time 7 day. It is filed as organism-based.
Data set [4] is described as follows: Acute toxicity in female C57BL/6 mouse assessed as change in lung weight at 10 mg/kg, iv qd treated for 7 days. It is filed as organism-based. Conditions: in vivo, 168 h, time 7 day.
Data set [5] is described as follows: Acute toxicity in female C57BL/6 mouse assessed as change in liver weight at 10 mg/kg, iv qd treated for 7 days. It is filed as organism-based. Particulars: in vivo, 168 h, time 7 day.
The nature of data set [6]: Toxicity in female C57BL/6 mouse allografted with mouse B16-F10 cells assessed as body weight loss at 5 to 10 mg/kg, iv qd. It is filed as organism-based. Conditions: in vivo, dose 5-10 mg/kg.
Data set [7] is described as follows: Acute toxicity in female C57BL/6 mouse assessed as change in heart weight at 10 mg/kg, iv qd treated for 7 days. It is filed as organism-based. Conditions: in vivo, 168 h, time 7 day.
A short description of data set [8]: Toxicity in female C57BL/6 mouse assessed as drug tolerance at 10 mg/kg, iv qd treated for 7 days. It is filed as organism-based. Conditions: in vivo, 168 h, time 7 day.

Regarding `O=C(Nc1cc(F)c(F)cc1C(=O)O)c1ccc(-n2ccnc2)nn1`, the result with B16-F10 was Active.

Consider `C#Cc1cc(NC(=O)c2ccc(-n3cnc(F)c3)nn2)c(C(=O)[O-])cc1F.[Li+]`, for which the Activity entry in data set [1], in [2], in data set [3], in data set [4], in [5] and in data set [6] was “Non-toxic” in each case. Besides, the Activity entry in [7] and in data set [8] was “Non-toxic” throughout.
